What was measured:
hH3R = hH3R (Homo sapiens, UniProt Q9Y5N1); assay: Competition binding of non-labeled ligands with trans-[3H]3f on hH3R-expressing cell homogenates
H3R = H3R (Homo sapiens, UniProt Q9Y5N1); assay: [3H]NAMH competition radioligand binding on cell homogenates overexpressing H3R; conditions: reference H3R ligands

Sequences of proteins named here, by UniProt entry; tags and fusion partners are left off. A change or cut given only in a name is not applied to a line headed by its entry.
UniProt Q9Y5N1: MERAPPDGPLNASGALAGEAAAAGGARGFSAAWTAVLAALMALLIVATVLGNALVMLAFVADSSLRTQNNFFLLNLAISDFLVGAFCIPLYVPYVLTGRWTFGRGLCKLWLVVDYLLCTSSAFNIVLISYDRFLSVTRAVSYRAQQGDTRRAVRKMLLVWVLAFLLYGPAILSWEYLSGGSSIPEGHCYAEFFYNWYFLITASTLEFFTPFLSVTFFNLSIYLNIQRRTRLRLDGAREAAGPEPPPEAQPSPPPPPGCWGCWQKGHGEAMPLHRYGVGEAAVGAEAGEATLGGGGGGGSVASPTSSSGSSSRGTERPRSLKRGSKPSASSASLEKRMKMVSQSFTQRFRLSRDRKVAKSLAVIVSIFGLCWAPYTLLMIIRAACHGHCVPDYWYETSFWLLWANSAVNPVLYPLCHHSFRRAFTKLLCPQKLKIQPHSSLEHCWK

NC(=NCc1ccc(Cl)cc1)SCCCc1cnc[nH]1 [clobenpropit, reference compound]
Ki (hH3R): 0.631 nM | pKi in competition with [3H]NAMH (H3R): 9.3 ± 0.1

Source: PMC12257542, “A Radiolabeled Photoswitchable G Protein-Coupled Receptor Antagonist Enlightens Ligand Binding Kinetics Associated with Photoswitching” (Journal of the American Chemical Society, 2025)
